From patent publication US10202371B2, “Oxazolidin-2-one-pyrimidine derivatives and the use thereof as phosphatidylinositol-3-kinase inhibitors” (Novartis AG, priority 2012, dated 2019)
Each block holds one molecule with its values, some of them ahead of it.

By UniProt entry, the sequences of proteins in these tests, tags left out. Residues count along the entry.
UniProt P42338, 2-1070: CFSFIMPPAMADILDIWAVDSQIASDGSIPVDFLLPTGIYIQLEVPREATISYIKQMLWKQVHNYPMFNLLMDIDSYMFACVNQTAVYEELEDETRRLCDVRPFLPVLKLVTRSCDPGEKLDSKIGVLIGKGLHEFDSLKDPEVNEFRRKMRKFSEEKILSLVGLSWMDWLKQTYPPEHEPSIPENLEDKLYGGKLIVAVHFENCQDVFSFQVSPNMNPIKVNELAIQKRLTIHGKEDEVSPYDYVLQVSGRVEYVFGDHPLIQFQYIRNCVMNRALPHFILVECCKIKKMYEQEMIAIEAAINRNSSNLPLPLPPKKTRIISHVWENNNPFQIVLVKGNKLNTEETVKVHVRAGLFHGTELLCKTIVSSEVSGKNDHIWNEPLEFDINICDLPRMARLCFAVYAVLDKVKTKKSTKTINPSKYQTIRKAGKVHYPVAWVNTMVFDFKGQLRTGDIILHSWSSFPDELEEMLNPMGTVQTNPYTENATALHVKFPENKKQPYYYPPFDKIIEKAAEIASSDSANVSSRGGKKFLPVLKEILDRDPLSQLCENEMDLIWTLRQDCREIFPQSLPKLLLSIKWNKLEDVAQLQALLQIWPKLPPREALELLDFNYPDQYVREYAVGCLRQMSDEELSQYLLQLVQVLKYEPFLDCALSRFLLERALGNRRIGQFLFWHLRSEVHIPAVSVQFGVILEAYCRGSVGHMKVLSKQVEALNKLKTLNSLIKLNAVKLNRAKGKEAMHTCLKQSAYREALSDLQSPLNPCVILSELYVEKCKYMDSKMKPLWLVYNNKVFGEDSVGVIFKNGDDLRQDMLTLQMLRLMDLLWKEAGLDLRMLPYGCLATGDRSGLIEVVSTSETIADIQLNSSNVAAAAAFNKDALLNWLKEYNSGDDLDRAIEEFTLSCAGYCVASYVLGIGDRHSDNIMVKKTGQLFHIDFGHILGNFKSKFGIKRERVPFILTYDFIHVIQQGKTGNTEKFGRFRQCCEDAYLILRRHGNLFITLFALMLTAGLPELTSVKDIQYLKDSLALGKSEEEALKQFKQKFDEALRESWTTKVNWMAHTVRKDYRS
UniProt P42336, whole entry: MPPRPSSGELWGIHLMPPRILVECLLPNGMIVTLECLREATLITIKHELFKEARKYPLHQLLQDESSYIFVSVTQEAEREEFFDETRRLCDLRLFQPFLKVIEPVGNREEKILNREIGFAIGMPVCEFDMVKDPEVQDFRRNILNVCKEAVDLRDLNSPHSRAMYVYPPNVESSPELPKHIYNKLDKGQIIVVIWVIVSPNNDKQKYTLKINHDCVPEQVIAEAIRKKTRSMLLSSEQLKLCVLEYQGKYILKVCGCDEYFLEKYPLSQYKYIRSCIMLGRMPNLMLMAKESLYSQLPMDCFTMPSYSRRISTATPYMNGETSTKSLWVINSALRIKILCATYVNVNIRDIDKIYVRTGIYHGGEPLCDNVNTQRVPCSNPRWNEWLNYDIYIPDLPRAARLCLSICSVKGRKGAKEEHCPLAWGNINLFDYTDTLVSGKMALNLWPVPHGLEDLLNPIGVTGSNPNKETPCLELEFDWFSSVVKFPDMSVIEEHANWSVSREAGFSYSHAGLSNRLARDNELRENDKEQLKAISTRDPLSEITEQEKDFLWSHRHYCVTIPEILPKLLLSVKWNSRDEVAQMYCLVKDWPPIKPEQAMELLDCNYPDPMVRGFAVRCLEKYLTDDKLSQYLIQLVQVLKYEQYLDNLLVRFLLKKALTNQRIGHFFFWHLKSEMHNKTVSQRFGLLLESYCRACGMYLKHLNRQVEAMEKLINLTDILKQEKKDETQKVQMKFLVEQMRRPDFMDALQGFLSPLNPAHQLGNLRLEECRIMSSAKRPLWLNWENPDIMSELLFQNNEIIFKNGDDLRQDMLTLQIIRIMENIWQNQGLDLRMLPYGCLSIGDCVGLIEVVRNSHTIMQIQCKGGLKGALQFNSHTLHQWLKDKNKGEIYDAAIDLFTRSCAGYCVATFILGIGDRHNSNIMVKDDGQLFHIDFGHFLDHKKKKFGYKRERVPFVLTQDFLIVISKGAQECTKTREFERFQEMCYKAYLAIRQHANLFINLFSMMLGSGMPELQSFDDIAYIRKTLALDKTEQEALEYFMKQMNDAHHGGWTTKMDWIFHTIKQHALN
UniProt P42336, 21-1068: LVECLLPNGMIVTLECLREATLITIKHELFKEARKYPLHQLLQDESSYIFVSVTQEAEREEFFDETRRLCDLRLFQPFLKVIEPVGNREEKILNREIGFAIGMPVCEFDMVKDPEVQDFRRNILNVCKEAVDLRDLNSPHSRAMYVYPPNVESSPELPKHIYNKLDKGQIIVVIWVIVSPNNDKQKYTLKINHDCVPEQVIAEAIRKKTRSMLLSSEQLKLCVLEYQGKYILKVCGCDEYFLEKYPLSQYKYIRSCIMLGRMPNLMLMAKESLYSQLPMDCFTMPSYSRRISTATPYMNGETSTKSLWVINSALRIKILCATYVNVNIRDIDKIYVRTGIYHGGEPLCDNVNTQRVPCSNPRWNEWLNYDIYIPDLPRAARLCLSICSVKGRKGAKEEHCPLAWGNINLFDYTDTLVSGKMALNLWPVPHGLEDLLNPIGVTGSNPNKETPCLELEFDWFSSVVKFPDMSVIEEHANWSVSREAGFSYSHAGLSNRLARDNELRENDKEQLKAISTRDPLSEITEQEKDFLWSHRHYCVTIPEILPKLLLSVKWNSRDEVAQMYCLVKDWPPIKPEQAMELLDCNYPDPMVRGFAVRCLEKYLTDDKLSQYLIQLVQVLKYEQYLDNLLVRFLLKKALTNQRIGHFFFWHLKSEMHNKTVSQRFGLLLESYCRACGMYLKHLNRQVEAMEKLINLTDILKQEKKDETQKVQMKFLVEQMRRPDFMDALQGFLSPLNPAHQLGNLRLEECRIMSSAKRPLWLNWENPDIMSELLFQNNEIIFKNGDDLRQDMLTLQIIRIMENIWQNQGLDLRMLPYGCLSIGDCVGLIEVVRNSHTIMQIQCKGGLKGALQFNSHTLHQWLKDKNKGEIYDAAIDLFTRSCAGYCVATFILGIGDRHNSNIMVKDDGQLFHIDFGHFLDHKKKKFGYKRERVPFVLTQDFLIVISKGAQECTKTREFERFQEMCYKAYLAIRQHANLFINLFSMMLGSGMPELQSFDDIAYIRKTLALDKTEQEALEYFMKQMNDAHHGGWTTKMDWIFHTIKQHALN

Assays:
[1] = molecular target: human PI3Kbeta p110 catalytic subunit (Rat-1 cells) (Homo sapiens (Human), UniProt P42338); assay: Cellular assay PI3Kbeta, p-Akt(S473) SureFire in Rat-1_PI3Kbeta cells; type: cell-based; conditions: p-AKT(Ser473), 1 h treatment; read-out: Rat1-PI3Kb/IC50
Source text: (§1) AlphaScreen (Amplified Luminescent Proximity Homogeneous Assay, ALPHA, Perkin Elmer) is a non-radioactive bead-based proximity assay technology to study biomolecular interactions in a homogenous microtiter plate format. The brand name SureFire denotes AlphaScreen assays that are adapted to quantify the phosphorylation of endogenous cellular proteins in cell lysates, by using matched antibody pairs, which consist of an anti-phospho-kinase and an anti-kinase antibody. The assay allows characterization of kinase signaling in cells as well as measurement of kinase inhibitor effects. The AlphaScreen technology provides several advantages over standard assay techniques such as ELISA, as it avoids time-consuming washing procedures and reduces plate handling. Furthermore, it is miniaturizable at least to a 384-well format and provides sensitivity down to the femtomolar range, dependent on the affinity of the antibodies included in the individual AlphaScreen SureFire assay kit. High sensitivity is reached by an intrinsic amplification mechanism, which involves production of singlet oxygen molecules. SureFire assay kits are commercially available for specific targets and include pairs of validated antibodies (PerkinElmer). […]

human PI3Kβ = human PI3Kβ (Homo sapiens (Human), UniProt P42338); assay: Biochemical assay PI3Kbeta (KinaseGlo luminescence); conditions: 1 μM ATP, read-out: PI3Kb/IC50
Source text: (§2) Cancer Ther. accepted). […] (L-alpha-phosphatidylinositol (PI), Liver, Bovine) were obtained from Avanti Polar Lipid (Cat. […] (Avanti, Cat. No. 840046X) or L-α-phosphatidylinositol (PI) was obtained from Avanti Polar Lipid (Cat. […] Luminescence is a well established readout to determine ATP concentrations and can thus be used to follow the activity of many kinases regardless of their substrate. The Kinase Glo Luminescent Kinase Assay (Promega, Madison/WI, USA) is a homogeneous HTS method of measuring kinase activity by quantifying the amount of ATP remaining in solution following a kinase reaction. 50 nL of compound dilutions were dispensed onto black 384-well low volume Non Binding Styrene (NBS) plates (Costar Cat. No. […] L-α-phosphatidylinositol (PI), provided as 10 mg/ml solution in methanol, was transferred into a glass tube and dried under nitrogen beam. […] NVP-BGT226 was used as a reference compound and included in all assay plates in the form of 16 dilution points in duplicate. […] All fits were performed with the program XLfit4 (ID Business Solutions, Guildford, UK).

[2] = molecular target: human PI3Kalpha p110 catalytic subunit (Rat-1 cells) (Homo sapiens (Human), UniProt P42336); assay: Cellular assay PI3Kalpha, p-Akt(S473) SureFire in Rat-1_PI3Kalpha cells; type: cell-based; conditions: p-AKT(Ser473), 1 h treatment; for IC50: read-out: Rat1-PI3Ka/IC50
Source text: as §1, with “(PerkinElmer). This report describes common procedures applied for AlphaScreen SureFire assays and respective semi-automated steps for routine kinase inhibitor profiling in cell-based assays.” for “(PerkinElmer).”

human PI3Kα = human PI3Kα (Homo sapiens (Human), UniProt P42336); assay: Biochemical assay PI3Kalpha (KinaseGlo luminescence); conditions: 1 μM ATP, read-out: PI3Ka/IC50
Source text: as §2

Compound: COCCOc1ccc([C@@H]2OC(=O)N(c3cc(-c4cnc(N)nc4C(F)(F)F)nc(N4CCOCC4)n3)[C@H]2CO)cc1 [Example 12]
IC50 [1]: 64 nM
IC50 (human PI3Kβ): 7 nM

Compound: CC[C@H]1[C@H](c2ccc(OC)cc2)OC(=O)N1c1cc(-c2cnc(N)nc2C(F)(F)F)nc(N2CCOCC2)n1 (relative stereo) [Example 2, (4S*,5S*)-3-(2′-amino-2-morpholino-4′-(trifluoromethyl)-[4,5′-bipyrimidin]-6-yl)-4-ethyl-5-(4-methoxyphenyl)oxazolidin-2-one]
IC50 [2]: 1070 nM
IC50 (human PI3Kα): 78 nM

Compound: CC[C@H]1[C@H](c2cccc(OC)c2)OC(=O)N1c1cc(-c2cnc(N)nc2C(F)(F)F)nc(N2CCOCC2)n1 [Example 6]
IC50 [2]: 930 nM

Rat1-PI3Ka/IC50 [2]: 0.126 umol I-1
Compound: Nc1ncc(-c2cc(N3C(=O)O[C@@H](c4ccc(OCCO)cc4)[C@@H]3CO)nc(N3CCOCC3)n2)c(C(F)(F)F)n1 [Example 13]
